How the values were obtained:
in vivo = settings: both, Kunming (KM), mouse, po

Which “EPS at effective dosage (in words)” value (KM mice (catalepsy)) does the source give for `Cc1nc2n(c(=O)c1CCN1CCC(c3noc4cc(F)ccc34)CC1)CCCC2` [risperidone, reference compound] here?
Its value is “did not cause EPS”.

What about the ED50 (in vivo) of the same compound?
Its ED50 is 0.3 mg/kg.

From patent US8993575B2, “[1,3,4] oxadiazole derivative and application thereof” (Huazhong University of Science & Technology, priority 2011, dated 2015)
